Reference: US20250388605A1, “HETEROBIFUNCTIONAL COMPOUNDS AND METHODS OF TREATING DISEASE” (Halda Therapeutics OpCo, Inc., priority 2022, published 2025)

Experiments:
BRD4-BD1 = BRD4-BD1 (Homo sapiens, UniProt O60885); experiment: Binding affinity to BRD4-BD1 (bromoKdELECT assay); conditions: 11-point 3-fold dilution series
Protocol: (§1) Compounds were tested using a bromoKdELECT assay. T7 phage strains displaying bromodomains were grown in parallel in 24-well blocks in an E. coli host derived from the BL21 strain. E. coli were grown to log-phase and infected with T7 phage from a frozen stock (multiplicity of infection=0.4) and incubated with shaking at 32° C. until lysis (90-150 minutes). The lysates were centrifuged (5,000×g) and filtered ([…]) to remove cell debris. Streptavidin-coated magnetic beads were treated with biotinylated small molecule or acetylated peptide ligands for 30 minutes at room temperature to generate affinity resins for bromodomain assays. The liganded beads were blocked with excess biotin and washed with blocking buffer (SeaBlock (Pierce), 1% BSA, 0.05% Tween 20, 1 mM DTT) to remove unbound ligand and to reduce nonspecific phage binding. Binding reactions were assembled by combining bromodomains, liganded affinity beads, and test compounds in 1× binding buffer (17% SeaBlock, 0.33×PBS, 0.04% Tween 20, 0.02% BSA, 0.004% Sodium azide, 7.4 mM DTT). Test compounds were prepared as 1000× stocks in 100% DMSO. Kds were determined using an 11-point 3-fold compound dilution series with one DMSO control point. All compounds for Kd measurements are distributed by acoustic transfer (non-contact dispensing) in 100% DMSO. […] The bromodomain concentration in the eluates was measured by qPCR.

BRD4-BD2 = BRD4-BD2 (Homo sapiens, UniProt O60885); experiment: Binding affinity to BRD4-BD2 (bromoKdELECT assay); conditions: 11-point 3-fold dilution series
Protocol: as §1

[1] = tested on: T-Rex 293 cell line SC3 cells having increased expression of androgen receptor protein due to exposure to doxycycline; experiment: Cellular growth inhibition, T-Rex 293 SC3 cells with doxycycline (increased androgen receptor expression), CellTiter-Glo; conditions: T-Rex 293 SC3 cells with 10 ng/mL doxycycline (increased androgen receptor expression), 72 hours, CellTiter-Glo 2.0
Protocol: (§2) The following types of cells were prepared for this experiment: (i) a T-Rex 293 cell line having increased expression of androgen receptor protein due to exposure to doxycycline and (ii) a T-Rex 293 cell line lacking increased expression of androgen receptor protein. Ability of the test compounds to inhibit proliferation of the foregoing cell types was evaluated according to the procedures set forth below.
(§3) The doxycycline-inducible androgen receptor protein expressing cell line was established using the following protocol: T-Rex 293 cells were purchased from Invitrogen (Cat #R71007) and transfected using Lipofectamine 2000 with the wild-type androgen receptor protein sequence cloned into the pcDNA4/TO vector. Transfected cells were selected using 400 μg/mL Zeocin (Invitrogen Cat #R25001). […] Clones were analyzed for expression of androgen receptor protein in the presence and absence of 10 ng/mL doxycycline (Sigma Cat #D9891), and a single doxycycline-inducible clone (hereinafter “SC3”) was selected for use in downstream assays. […]
(§4) At the end of the treatment duration, cell viability was quantified with CellTiter-Glo 2.0 reagent (Promega Cat #G9243). […] Following incubation, the plates were spun at 3000×g for 30 seconds, then sealed with an optical adhesive cover, and luminescence readings were measured with an EnVision Plate Reader.
(§5) Data was normalized using zero luminescence for baseline. […]

[2] = tested on: T-Rex 293 cell line SC3 cells lacking increased expression of androgen receptor protein; experiment: Cellular growth inhibition, T-Rex 293 SC3 cells without doxycycline (no increased androgen receptor expression), CellTiter-Glo; conditions: T-Rex 293 SC3 cells not exposed to doxycycline (no increased androgen receptor expression), 72 hours
Protocol: as §2, §3, §4, §5

VCaP cells = experiment: Cellular growth inhibition assay for VCaP cells, CellTiter-Glo; conditions: 72 hours
Protocol: VCaP cells were purchased from American Type Cell Culture (ATCC Cat #CRL2876) and then seeded on poly-D-lysine coated, black clear-bottom 384-well plates at 5000/well in 25 μL Dulbecco's Modified Eagle Medium (DMEM) supplemented with 10% w/w Fetal bovine serum (FBS) and 1% w/w Pen-Strep. Pen-Strep is a commercially available mixture of penicillin G and streptomycin, which is used in mammalian cell culture media to prevent bacterial contamination. Dulbecco's Modified Eagle Medium (DMEM) supplemented with 10% w/w fetal bovine serum (FBS) and 1% w/w Pen-Strep is herein referred to as Treatment Medium. Following seeding of cells in the plates, the plates were spun at 300×g for 30 seconds, then equilibrated to room temperature for 30 minutes, and then deposited in a humidified tissue culture incubator maintained at 37° C. with 5% CO2. […]
as §4, §5

Kd (BRD4-BD1): 500 to 2500 nM
Kd (BRD4-BD2): < 50 nM
GI50 (VCaP cells): < 500 nM
SMILES: CCS(=O)(=O)Cc1ccc(Oc2cccc(OCCN3CCN(c4ncc(C(=O)N[C@H]5C(C)(C)[C@H](Oc6ccc(C#N)c(Cl)c6)C5(C)C)cn4)CC3)c2F)c(-c2cn(C)c(=O)c3[nH]ccc23)c1
GI50 [1]: < 500 nM
GI50 [2]: < 500 nM
